These results are taken from patent US20260297105A1, “RAF-MEK PROTEIN COMPLEX MODULATORS AND METHODS OF USE THEREOF” (GANDEEVA THERAPEUTICS, INC., priority 2023, published 2026).

Sequences of proteins named here, by UniProt entry; tags and fusion partners are left off.
UniProt Q02750, whole entry, looked up: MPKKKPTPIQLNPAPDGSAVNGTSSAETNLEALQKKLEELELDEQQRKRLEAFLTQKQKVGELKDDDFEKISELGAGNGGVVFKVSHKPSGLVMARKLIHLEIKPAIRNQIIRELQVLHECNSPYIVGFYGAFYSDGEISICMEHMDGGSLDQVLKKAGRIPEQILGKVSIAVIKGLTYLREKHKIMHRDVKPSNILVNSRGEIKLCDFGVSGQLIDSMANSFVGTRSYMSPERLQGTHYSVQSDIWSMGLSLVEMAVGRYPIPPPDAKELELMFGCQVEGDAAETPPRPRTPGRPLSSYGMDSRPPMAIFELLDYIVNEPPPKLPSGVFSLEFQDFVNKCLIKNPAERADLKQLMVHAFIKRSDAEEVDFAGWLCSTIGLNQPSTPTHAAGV

The target in one assay is MEK1 (Homo sapiens, UniProt Q02750). Put plainly: MEK1 kinase cascade assay (ADP-Glo), inhibition of MEK1 kinase activity. The format is biochemical. The conditions noted are these: read-out: BRAF ADP Glo kinase assay V3 (IC50); 25 nM BRAF, 6.25 nM MEK1, 0.5 μM ERK, 1 mM ATP; 20 min preincubation, 1 hr at 25° C. The text has this: (§1) Protein expression and purification: BRAF (445-723) with N-term His-tag and C-term StrepII tag was expressed using the Expi293 system (ThermoFisher) and purified using Strep-Tactin® XT-Superflow (IBA) chromatography. ERK1 (full-length) with N-term His-tag was expressed in Rosetta DE3 cells (Millipore) and purified using HisTrap HP (Cytiva) and Superdex 200 (Cytiva) column chromatography. Full-length MEK1 for TR-FRET assays with N-term His-tag was expressed in BL21DE3 cells (ThermoFisher) and purified using HisTrap HP (Cytiva) and Superdex 200 (Cytiva) column chromatography.
Efficacy of exemplary compounds in inhibition of MEK1 kinase activity: The effect of compound MEK1 inhibition was evaluated using an ADP detection system for kinases, such as the ADP-Glo assay (Promega). The MEK1 kinase cascade assay consisted of 9 μL reaction volumes in 384-well white, opaque Optiplates (PerkinElmer). Compounds were prepared from DMSO stocks in assay buffer (10 mM HEPES pH 7.5, 5 mM MgCl2, 2 mM CHAPS, and 1 mM DTT) and preincubated with 25 nM BRAF for 20 mins at 25° C. prior to addition of 6.25 nM MEK1/0.5 μM ERK/1 mM ATP premix to initiate the kinase reaction. […] After a 1 hr incubation at 25° C., conversion of ATP to ADP was detected using ADP-Glo™ reagents according to the manufacturer's protocol. Luminescence was measured using a CLARIOstar microplate reader (BMG). […]
For orientation: ADP-Glo turns the ADP formed in a reaction into a luminescent signal.

The next assay has as its system BRAF-MEK1. In words: BRAF-MEK TR-FRET assay, stabilization of MEK1 and BRAF interaction. The format is binding. To be noted: read-out: BRAF-MEK TR-FRET Assay (EC50, fold stabilization); 4 nM BRAF, 10 nM MEK, 100 μM ATP; 1 hr at 25° C.
Text: as §1
Efficacy of exemplary compounds in stabilization of MEK1 and BRAF interaction: Compound stabilization of BRAF-MEK interaction was evaluated using TR-FRET (Time Resolved Fluorescence Energy Transfer). The FRET assay consisted of His-tagged MEK1 (produced in-house), GST-tagged BRAF (SignalChem, B08-11G), Anti His-Tb Cryptate donor, and Anti GST-XL665 acceptor fluorophores (PerkinElmer) to generate FRET signal upon BRAF-MEK1 binding. […] TR-FRET was measured using Cytation5 microplate reader (Agilent) using Ex/Em=340/620 nm and Ex/Em=340/665 nm to determine the FRET ratio. Fold stabilization was calculated as FRET signal of treated well/DMSO control. […]
On the technique in general: In TR-FRET formats the signal depends on donor and acceptor labels being close together.

Molecules are shown by their SMILES.

Regarding `CNS(=O)(=O)Nc1cccc(CN2Cc3ncc(OC(=O)N(C)C)cc3OC2=O)c1F`, on MEK1, the IC50 – broadly, the point on the concentration scale where inhibition reaches its midpoint – is 5 to 50 nM. Moreover, in the assay with BRAF-MEK1, the EC50 lay within 200 to 1000 nM.
